These results are taken from ChEMBL document CHEMBL1134834, “Quinoxalinylethylpyridylthioureas (QXPTs) as potent non-nucleoside HIV-1 reverse transcriptase (RT) inhibitors. Further SAR studies and identification of a novel orally bioavailable hydrazine-based antiviral agent” (J Med Chem, 2001).

The assay deals with Human immunodeficiency virus type 1 reverse transcriptase (Human immunodeficiency virus 1, UniProt Q72547). As to the kind of experiment: Inhibition of HIV-1 wild-type RT.

As to `O=C(NNc1nc2ccccc2n2cccc12)Nc1ccc(Br)cn1`, the Ki (as a rule, the equilibrium dissociation constant of an inhibitor or competing ligand from its target) was 2600 nM.
Compound `S=C(NCCOc1nc2cc(Cl)ccc2n2cccc12)Nc1ccc(Br)cn1` displayed an inhibitory constant (Ki) of 53 nM.
